Target: T1, TAK1 (Homo sapiens, UniProt O43318)
T1 sequence (O43318 1-606): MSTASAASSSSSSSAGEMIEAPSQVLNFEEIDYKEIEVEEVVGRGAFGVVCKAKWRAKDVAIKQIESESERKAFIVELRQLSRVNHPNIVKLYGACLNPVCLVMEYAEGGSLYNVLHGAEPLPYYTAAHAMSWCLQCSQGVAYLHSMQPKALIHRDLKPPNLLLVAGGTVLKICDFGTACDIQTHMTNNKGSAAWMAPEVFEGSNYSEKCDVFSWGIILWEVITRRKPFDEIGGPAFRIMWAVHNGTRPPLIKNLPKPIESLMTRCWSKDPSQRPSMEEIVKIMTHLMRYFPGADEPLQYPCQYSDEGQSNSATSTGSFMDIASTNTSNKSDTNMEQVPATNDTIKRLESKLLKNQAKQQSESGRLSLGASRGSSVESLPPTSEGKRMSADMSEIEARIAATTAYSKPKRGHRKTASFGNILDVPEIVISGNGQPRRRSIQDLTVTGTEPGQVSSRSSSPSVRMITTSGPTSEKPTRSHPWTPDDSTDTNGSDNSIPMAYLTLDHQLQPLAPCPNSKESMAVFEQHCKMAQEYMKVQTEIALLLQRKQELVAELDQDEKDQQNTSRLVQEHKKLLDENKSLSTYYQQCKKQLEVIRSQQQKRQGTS
T1 sequence (Q15750 1-504 partner): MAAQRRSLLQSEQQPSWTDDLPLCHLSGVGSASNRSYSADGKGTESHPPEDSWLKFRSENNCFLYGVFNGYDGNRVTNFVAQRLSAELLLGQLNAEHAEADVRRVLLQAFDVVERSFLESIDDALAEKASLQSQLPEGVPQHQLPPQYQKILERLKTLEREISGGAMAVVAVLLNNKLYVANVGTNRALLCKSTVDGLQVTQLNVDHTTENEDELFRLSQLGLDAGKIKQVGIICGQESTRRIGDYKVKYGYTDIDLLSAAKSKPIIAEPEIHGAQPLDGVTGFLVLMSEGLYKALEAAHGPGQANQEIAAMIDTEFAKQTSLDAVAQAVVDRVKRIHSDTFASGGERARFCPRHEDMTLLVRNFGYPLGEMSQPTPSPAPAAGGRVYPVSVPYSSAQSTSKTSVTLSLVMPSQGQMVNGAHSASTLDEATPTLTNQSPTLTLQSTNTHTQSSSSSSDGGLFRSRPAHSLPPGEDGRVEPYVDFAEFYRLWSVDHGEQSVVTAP
Assay: TAK1 enzyme inhibition
Format: biochemical

SMILES: COc1cc(O)c2c(c1)/C=C/C[C@H](O)[C@H](O)C(=O)/C=C\C[C@H](C)OC2=O [LL-Z-1640-2, (3S,5Z,8S,9S,11E)-8,9,16-trihydroxy-14-methoxy-3-methyl-3,4,9,10-tetrahydro-1H-2-benzoxacyclotetradecine-1,7(8H)-dione, reference compound]
- IC50 (Table 7, read-out: TAK1 pIC50 (converted)): 0.158 µM
- TAK1 pIC50 (Table 8): 6.8

From patent publication US20090312396A1, “METHODS FOR CANCER TREATMENT USING TAK1 INHIBITORS” (AstraZeneca AB, priority 2006, published 2009)
